Measurements taken from patent US20210361768A1, “METHODS AND MATERIALS FOR ASSESSING AND TREATING CANCERS” (Mayo Foundation for Medical Education and Research, priority 2018, published 2021).

Columns and labels:
[1] = test system: HER2-positive breast cancer; experiment: NeoALTTO trial: pathologic complete response and event-free survival by treatment arm and adaptive immune signature (AIS) status; assay type: in vivo, human; conditions: for %6-yr EFS (6-year Event Free Survival rate) / % pCR (complete pathological response rate): NeoALTTO patients
[2] = test system: HER2-positive breast cancer; experiment: NCCTG N9831 trial: recurrence-free survival by treatment arm and CD45 mTIL / AIS status; assay type: in vivo, human
Description: A total of 1,280 patients from the NCCTG N9831 (Perez EA et al., Journal of clinical oncology: official journal of the American Society of Clinical Oncology, 32:3744-52 (2014)), 168 patients in FinHer (Joensuu H et al., N Engl. J. Med, 354:809-20 (2006)), and 170 patients in FinXX (Joensuu H et al., Journal of clinical oncology: official journal of the American Society of Clinical Oncology, 30:11-8 (2012)), were included in this analysis. […] In the FinXX trial (Joensuu H et al., Journal of clinical oncology: official journal of the American Society of Clinical Oncology, 30:11-8 (2012)), patients were randomized to receive either 3 cycles of docetaxel and capecitabine followed by 3 cycles of cyclophosphamide, epirubicin, and capecitabine (TX/CEX) or 3 cycles of docetaxel followed by 3 cycles of cyclophosphamide, epirubicin, and fluorouracil (T/CEF). […] Median follow-up was 10.6 years (range 0.8 months-15.3 years) in the NCCTG N9831 trial, 5.5 years in the FinHER trial, and 7.0 years in the FinXX trial.
NanoString™ technology was used to quantify mRNA in paraffin embedded tumor samples from the NCCTG N9831, FinHER, and FinXX trials. Immune subset signatures were calculated using normalized and log2 transformed data based on previous publication by Danaher et al. (Danaher P et al., J Immunother Cancer, 5:18 (2017)). The geometric mean across relevant genes listed in the table below was calculated to generate the composite score for each immune subset signature, namely CD45, B cells, CD8 T cells, cytotoxic cells, exhausted CD8, immature dendritic cells (iDC), macrophages, mast cells, neutrophils, NK CD56 dim cells, T cells, and regulatory T cells (Treg). The score was mean-centered and standardized in all analyses.
For outcome analysis, recurrence-free survival (RFS) was defined as the time from random assignment to breast cancer recurrence (local, regional, or distant recurrence of breast cancer or breast cancer-related death). The time to event for patients who died without recurrence was considered censored at the time of death.

[3] = AIS deficient, listed as trastuzumab

## Trastuzumab: humanized IgG1 κ monoclonal antibody against extracellular domain of human epidermal growth factor receptor 2 (HER2)
[1]; NeoALTTO arm B, 95% CI 2.25-54.42, p=0.0004
  OR for pCR, enriched AIS compared to deficient AIS: 9.12
[1]; AIS deficient
  %6-yr EFS (6-year Event Free Survival rate): 63%
  % pCR (complete pathological response rate): 8%
[1]; [3]
  %6-yr EFS (6-year Event Free Survival rate): 63%
  % pCR (complete pathological response rate): 8%
[1]; AIS enrich
  % pCR (complete pathological response rate): 43%
[1]; AIS enrich, listed as trastuzumab
  % pCR (complete pathological response rate): 43%
[2]; NCCTG N9831, both AIS deficient and enriched groups, particularly when given in a concurrent fashion
  Benefit from treatment (outcome, in words): benefit
[2]; NCCTG N9831 arm C (AC-TH), 95% CI 0.49-1.28, p=0.34
  HR for RFS, CD45 enrichment vs no enrichment: 0.79
[2]; NCCTG N9831 arm C (trastuzumab concurrently with chemotherapy, AC-TH), patients with CD45 enrichment
  10-year Kaplan-Meier estimate for RFS: 83.6%
[2]; NCCTG N9831 arm C (trastuzumab concurrently with chemotherapy, AC-TH), patients with no CD45 enrichment
  10-year Kaplan-Meier estimate for RFS: 79.8%
[2]; NCCTG N9831 sequential trastuzumab arm (AC-T-H), patients with CD45 enrichment
  10-year Kaplan-Meier estimate for RFS: 81.3%
[2]; NCCTG N9831 sequential trastuzumab arm (AC-T-H), patients with no CD45 enrichment
  10-year Kaplan-Meier estimate for RFS: 72.6%
[2]; NCCTG N9831 sequential trastuzumab arm (AC-T-H), 95% CI 0.42-0.93, p=0.02
  HR for RFS, CD45 enrichment vs no enrichment: 0.63
